# AlphaSeq binding of Ab-14 light chain variants to a spike HR2 peptide

Target peptide (SARS-CoV-2 spike, HR2 region): PDVDLGDISGINAS

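Phage display of a naive human antibody library on the peptide gave the parent. Designed CDR sequences, proposed from the first random library and measured here. Group labels follow the data file (En: ensemble of fine-tuned language models; GP: Gaussian process model; HC: hill climbing; Gen: genetic algorithm; Gibbs: Gibbs sampling; a sequence that several methods proposed may carry one label only). The scFvs were displayed on barcoded MATa yeast, the peptide on MATalpha yeast. After mating in shaken culture at 30 °C for 16 h, diploids were selected and their barcode pairs sequenced. Read counts were normalised to the haploid input and turned into Kd by a linear fit to BCL2-family pairs of known affinity, for each replicate. Each pool was mated in six replicate cultures.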

Ab-14 is the parent antibody, in scFv form: VH, then a 15-residue (Gly4Ser)3 linker, then VL. The heavy chain is unchanged in all variants.
VH: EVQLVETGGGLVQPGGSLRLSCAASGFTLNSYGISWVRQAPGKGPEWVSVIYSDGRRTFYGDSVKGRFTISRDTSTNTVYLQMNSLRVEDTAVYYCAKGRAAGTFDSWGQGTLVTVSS
VL: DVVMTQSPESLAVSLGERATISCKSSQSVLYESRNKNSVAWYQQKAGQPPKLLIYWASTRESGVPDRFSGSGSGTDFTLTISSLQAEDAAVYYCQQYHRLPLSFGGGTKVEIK

Variants are written as CDR1, CDR2 and CDR3 of the light chain (limits as in the source). Parent: KSSQSVLYESRNKNSVA, WASTRES, QQYHRLPLS.
This list holds designs with more than six substitutions.
Values are apparent Kd, the geometric mean of the replicates that gave a signal; lower means stronger binding.
"nd" marks a missing value. The strain was present, yet no cells mated with the target were sequenced in any replicate, which points to weak or no binding.
Empty control strains, which show no peptide, gave a signal in 4% of pairings with all light chain designs; the median was 430 nM and 95% of these signals were weaker than 38 nM. No background was subtracted. The control count says in how many pairings with the empty strains this scFv gave a signal.
Values of this round are not directly comparable with the first-round values of the same sequences.
In the paper, a design with two or fewer of six values counts as a poor binder.

Variant TISNSFMMENHFKNSVA | QASTRES | QCYDRLPLS [En_HC] showed 16 nM (6 of 6 replicates; controls 1 of 18). Variant IIDQLMYHGNKRANSIA | QASERLN | QQYHHLPLT [En_Gen] showed 15 nM (6 of 6 replicates; controls 0 of 18). For QIYQAMHTLSQMKDNVA | DVNERGS | QQYYRLPLS [En_Gen], the assay gave 890 pM (6 of 6 replicates; controls 0 of 18). Variant TISDVMGHMSKQTNNVA | DMDTRGE | QQYNRLPLS [En_Gen] showed 910 pM (6 of 6 replicates; controls 1 of 18). For KMTTNLEHQASRKNSIA | EADMVAA | QDYMRLPLI [En_Gibbs], the assay gave 6.3 nM (6 of 6 replicates; controls 1 of 18). With IITQSVMQESRNKSNVA | NTTERES | QQYDRLPLI [En_HC] the result was 2.3 µM (2 of 6 replicates; controls 0 of 18). With KLSFSCLYESRMPNSVA | NASTRYS | QQYHRLPLS [GP_Gibbs] the result was 1.6 nM (6 of 6 replicates; controls 0 of 18). Variant QVQAFHEHEKDQTQAMA | EASMRDA | QQYERLPLS [En_Gibbs] showed 9.0 nM (6 of 6 replicates; controls 0 of 18).

Variant HLSQSQDLESVHKNSIA | DLMTRES | QQYHRLPLS [En_HC] gave 2.4 nM (6 of 6 replicates; controls 1 of 18). Variant KLQQSRLYEERNSNSVA | SASLRES | QQYHRLPLS [GP_Gibbs] gave 710 pM (6 of 6 replicates; controls 0 of 18). For KVWPSELGLERNKMSVA | QASTRES | QQYHRLPLS [GP_Gibbs], the assay gave 1.4 nM (6 of 6 replicates; controls 2 of 18). Variant ALALTLHQVDSQMNNIA | EGMLRES | QQYNRLPLN [En_Gibbs] gave 19 nM (1 of 6 replicates; controls 0 of 18). Variant HYENISEPMGRYDQNIA | NVSIREH | QQYFMLPLS [En_Gibbs] showed 11 nM (6 of 6 replicates; controls 0 of 18). Variant KIGGVTNGISRNKNSVA | EQSTREE | QQYNRLPLS [En_HC] showed 1.0 nM (6 of 6 replicates; controls 4 of 18). Variant KISYMGEYFSTNHSSIA | QASTRLQ | QQYHRLPLS [En_HC] showed 2.9 nM (6 of 6 replicates; controls 0 of 18). Variant HINTALKTVDDHYSNVA | EQRLTSI | QQYFRLPLS [En_Gibbs] gave 2.6 nM (6 of 6 replicates; controls 1 of 18).

With HFSQVTMYGMWNKNSVA | QTSTREE | QQYDRLPLS [En_HC] the result was 16 nM (6 of 6 replicates; controls 1 of 18). With KLSGLMASSKFAKDNVA | ENNTREK | QQYERLPLS [En_Gen] the result was 720 nM (6 of 6 replicates; controls 3 of 18). For HMSMLTLQGQRHRNSVA | QMTTREN | QQYDHLPLS [En_Gen], the assay gave 3.6 nM (6 of 6 replicates; controls 1 of 18). Variant MIYGAERELGLARNSIA | DNVTRYN | QQYERLPLS [En_Gen] showed 370 nM (6 of 6 replicates; controls 0 of 18). Variant MMSQVTALGQRHRNNVA | QTSTREP | QQYDRLPLV [En_Gen] gave 7.1 nM (6 of 6 replicates; controls 1 of 18). Variant KLSISYLFESLEKNSIA | ENSTREK | QHYHRLPLS [En_HC] gave nd (0 of 6 replicates; controls 1 of 18). With IVSQLMIWGMHVKNSIA | EAELRLN | QQYDRLPLY [En_Gen] the result was nd (0 of 6 replicates; controls 0 of 18). Variant KLWGRCMDEELINYSVA | NGRLAVQ | QQYDRLPLS [En_Gibbs] gave nd (0 of 6 replicates; controls 0 of 18).

Variant KLQMSELPESRNKNSVA | WASLREL | QQYHRLPLS [GP_Gibbs] showed 8.4 nM (6 of 6 replicates; controls 1 of 18). Variant KFSQAVNSMSVSKSAVA | EMSTRPE | QQYNRLPLS [En_Gen] showed 12 nM (5 of 6 replicates; controls 0 of 18). Variant QVQYHPGESLRHASSIA | DVNIKVM | QQYSRLPLA [En_Gibbs] gave 830 pM (6 of 6 replicates; controls 0 of 18). With QLEWDALWGANYDYSVA | AQDVALP | QQYFRLPLI [En_Gibbs] the result was 34 nM (6 of 6 replicates; controls 0 of 18). For KISMLTNQTFESGNNVA | EMATREN | QQYHRLPLS [En_Gen], the assay gave 17 nM (6 of 6 replicates; controls 0 of 18). With KVSEFMKGLMMRTDSIA | DNETRGA | QQYDRLPLS [En_Gen] the result was 110 nM (1 of 6 replicates; controls 1 of 18). Variant KISQMIRVGSTHGNSIA | EEATRAK | QQYHRLPLF [En_Gen] gave 15 nM (5 of 6 replicates; controls 0 of 18). With STTSHEEESEGAHASVA | EASMLES | QQYHRLPLD [En_Gibbs] the result was 37 nM (6 of 6 replicates; controls 1 of 18).

For KIGHGLTTEMYNRNSVA | QTETRVN | QHYHRLPLS [En_HC], the assay gave 200 nM (5 of 6 replicates; controls 1 of 18). Variant SISQMSTIESITHNSVA | QTSTRES | QQYDRLPLS [En_HC] gave 11 nM (6 of 6 replicates; controls 1 of 18). For KISTQIPEFEMWDNAIA | EATLRET | QHYQRLPLS [En_Gibbs], the assay gave 32 nM (5 of 6 replicates; controls 3 of 18). Variant KLRMLTLTGGYFKNSVA | QAETREN | QSYHRLPLA [En_HC] gave 11 nM (5 of 6 replicates; controls 0 of 18). For NLMQVGGYESNVHNSIA | DLRTRES | QQYHRLPLS [En_HC], the assay gave 830 pM (6 of 6 replicates; controls 0 of 18). With KIQWYQLEMRDPGSAVA | EASVRYN | QQYWRLPLE [En_Gibbs] the result was 11 nM (6 of 6 replicates; controls 1 of 18). Variant RLLDWAYNQTAMDSNIA | DQALEMD | QQYSHLPLT [En_Gibbs] showed 440 nM (2 of 6 replicates; controls 1 of 18). Variant KIDGQRSYDAGRERAIA | DVTIRFR | QQYARLPLL [En_Gibbs] gave 27 nM (6 of 6 replicates; controls 0 of 18).

With KIGMVLNQMLHQKNNVA | DLVTREQ | QQYHRLPLS [En_Gen] the result was 1.9 nM (6 of 6 replicates; controls 1 of 18). Variant TLSVMQGLEAVKHNSVA | ENSTREK | QQYDRLPLA [En_Gen] showed 41 nM (6 of 6 replicates; controls 0 of 18). With TIADVMGHMSKNRNNVA | DMDTRGQ | QQYNRLPLS [En_Gen] the result was 550 pM (6 of 6 replicates; controls 0 of 18). Variant QLLMATMQGQYNRNSVA | HAQTRND | QSYHRLPLS [En_HC] showed 29 nM (5 of 6 replicates; controls 0 of 18). With QISGITGHMSTIKNNVA | EMVTRAN | QQYERLPLS [En_Gen] the result was 4.7 nM (6 of 6 replicates; controls 1 of 18). For RIYIQSDYYMENRSAIA | EMSLKAM | QQYFKLPLA [En_Gibbs], the assay gave 220 nM (3 of 6 replicates; controls 0 of 18). With MIYGAQRELGLAANSIA | DNVTRYQ | QQYERLPLS [En_Gen] the result was 8.0 nM (6 of 6 replicates; controls 0 of 18). Variant KLQGSELYEERNDNSVA | QASQRES | QDYHRLPLS [GP_Gibbs] gave 56 nM (6 of 6 replicates; controls 1 of 18).

A selection of 4 entries from above:

The variant IIDQLMYHGNKRANSIA | QASERLN | QQYHHLPLT [En_Gen] showed 15 nM (6 of 6 replicates; controls 0 of 18).
The variant QVQAFHEHEKDQTQAMA | EASMRDA | QQYERLPLS [En_Gibbs] showed 9.0 nM (6 of 6 replicates; controls 0 of 18).
The variant KISQMIRVGSTHGNSIA | EEATRAK | QQYHRLPLF [En_Gen] showed 15 nM (5 of 6 replicates; controls 0 of 18).
The variant QISGITGHMSTIKNNVA | EMVTRAN | QQYERLPLS [En_Gen] showed 4.7 nM (6 of 6 replicates; controls 1 of 18).

Reference: Li et al. 2023, doi:10.1038/s41467-023-39022-2. File: FLAb, binding data.